Values quoted from earlier work as cited in US20140100183A1, “CENTRAL ADMINISTRATION OF STABLE FORMULATIONS OF THERAPEUTIC AGENTS FOR CNS CONDITIONS” (The Regents of the University of Colorado, a body corporate, priority 2006, published 2014).

Conditions: qualitative, solvents as given in the source; cited from earlier work

Semicarbazide hydrochloride [NORTRIPTYLINE]
Comments: solubility: very slightly soluble in water and sparingly soluble in alcohol
